According to patent publication US20020015937A1, “Methods for inactivating viruses” (priority 2000, published 2002):

Tested on: bacteriophage MS2
Experiment: Inactivation of bacteriophage MS2 in human blood plasma by pressure and ethyleneimine (plaque assay on E. coli)

## aziridine (ethyleneimine)
0.025 M ethyleneimine, 30,000 psi for 10 minutes, 25° C., human blood plasma, 10^8 pfu per ml MS2
  reduction in viral titer, combination with pressure versus sum of the reductions of the single treatments: significantly greater reduction in viral titer
Similar experiments with lower concentrations of ethyleneimine, with pressure
  viral inactivation under pressure at lower concentrations: equivalent viral inactivation with lower concentrations of ethyleneimine or with shorter incubation time
